Assay results published in patent publication US20220017483A1, “AMINOPYRIDINE COMPOUND, PREPARATION METHOD THEREFOR AND USE THEREOF” (SICHUAN-KELUN-BIOTECH BIOPHARMACEUTICAL CO., LTD, priority 2018, published 2022).

Target: T1, A2a receptor cell membrane (human origin) (Homo sapiens, UniProt P29274)
T1 construct: purchased PerkinElmer RBHA2AM400UA
Assay: Competitive inhibition constant (Ki) for adenosine A2a receptor, [3H]-CGS-21680 radioligand binding
Settings: selectivity ratio A1 over A2a
Description: A2a receptor cell membrane (human origin): PerkinElmer, RBHA2AM400UA
A2a test buffer: 50 mM Tris-HCl, 10 mM MgCl2, 1 mM EDTA, pH7.4
The A1 receptor cell membrane was diluted to 0.025 μg/μl with the A1 test buffer and the A2a receptor cell membrane was diluted to 0.05 μg/μl with the A2a test buffer to obtain an A1 receptor cell membrane dilution and an A2a receptor cell membrane dilution.
The tested compound and CGS15943 were gradiently diluted with DMSO. 1 μl test compound, high-value control (0.5% DMSO), low-value control (1000 nM CGS15943) were added to a 96-well plate, wherein each well was added with 100 μl A1 receptor cell membrane dilution (containing 2.5 μg cell membrane) to obtain an A1 detection plate. […]
After the incubation, the reaction solutions in the A1 detection plate and the A2a detection plate were transferred to two Unifilter-96 GF/C filter plates. […] After sealing the top of the filter plates, the plates were read in the counter MicroBeta2 Reader.
Data analysis: The inhibition rate was calculated according to the following formula: […]
IC50 was fitted by EXCEL XLfit. The competitive inhibition constant (Ki) was calculated according to the formula: Ki=IC50/(1+the concentration of the isotope-labelled ligands/Kd); Kd is the dissociation constant of the isotope-labeled ligands.

How did the “Ki(A1)/Ki(A2a)” value turn out when `Cc1cc(-c2cc(-n3cc(C(N)=O)cn3)c(N)nc2-c2ccc(F)cc2)cc(Cl)n1` [Compound 26, 1-(6-amino-2′-chloro-2-(4-fluorophenyl)-6′-methyl-[3,4′-bipyridine]-5-yl)-1H-pyrazol-4-carboxamide] was run?
The value was 46.8.
